Assay results reported in BindingDB's records for doi:10.1038/nchembio.2209 (Dana-Farber Cancer Institute, 2016).

Target: T1, Bromodomain-containing protein 4 [44-168] (Human, UniProt O60885)
T1 construct: 44-168
Test: AlphaScreen BRD Binding Assay
Conditions: pH 7.5; 25 °C

## Cc1sc2c(c1C)C(c1ccc(Cl)cc1)=N[C@@H](CC(=O)NCCOCCNC(=O)C[C@H]1N=C(c3ccc(Cl)cc3)c3c(sc(C)c3C)-n3c(C)nnc31)c1nnc(C)n1-2 [(6S+6S)-PEG1 (4)]
  IC50: 158 nM
